# Patent US20250129101A1, “Compound, Pharmaceutical Composition Comprising the Same and Method for Treating Cancer Using the Same” (NATIONAL TSING HUA UNIVERSITY, priority 2023, published 2025)
# System: 4T1 R4 cells
# Experiment: Cell viability assay, 4T1 R4 cells
# Format: cell-based, mouse
# Settings: 2 μM 7S9, Chou and Talalay method
# Description: MCF-7, MDA-MB-231, MDA-MB-468, Hs578T, 4T1, and HeLa cell lines stably expressing H2B-mCherry and eGFP-tubulin (kindly provided by Dr. Anthony A. Hyman, Max-Planck-Institute for Molecular Cell Biology and Genetics, Dresden, Germany) were cultured in high-glucose Dulbecco's Modified Eagle Medium (DMEM). SK-BR-3 cells were cultured in McCoy's Modified 5a Medium. Hs578T cells were cultured in high-glucose DMEM supplemented with an additional 0.01 mg/mL bovine insulin. […] All mentioned media were supplemented with 10% fetal bovine serum (Gibco) and 1% Penicillin/Streptomycin (Corning), and cells were incubated at 37° C. in a humidified atmosphere containing 5% CO2. HEK293 cells were cultured in HE300 medium (GMEP incorporated, Japan) and maintained in suspension culture with 125 rpm and 8% CO2.
# The cancer cells were cultured in a 96-well plate at a confluence of 1000-2000 cells/well with indicated drugs for specific days. When the time was up, the culture medium in the plate was aspirated and replaced with a prepared CellTiter-Glo reagent/DMEM mixture (1:1 mix of CellTiter-Glo reagent and serum-supplemented DMEM). After incubation for 10 min, the luminescence (proportional to the number of living cells) was measured with an ELISA plate reader to determine the cell viability.
structure (smiles),measurement,value
"C/C(=C\c1csc(C)n1)[C@@H]1C[C@@H]2O[C@]2(C)CCC[C@H](C)[C@H](O)[C@@H](C)C(=O)C(C)(C)[C@@H](O)CC(=O)N1 [Ixabepilone, ixabepilone]","CI (combination index), MTA with 7S9",0.49
